Test results from PubChem BioAssay (Tox21).
Several values for one entry are separate records, joined by “and”; a condition that tells them apart may be missing. Equal entries are not always repeated. The entries are a selection whose mix differs from that of the whole data set. Inconclusive results are not listed. Activity calls are given as the source filed them. Calls come from the whole dose curve; as a rule, active = well fitted cell-killing curve with a large enough effect in the repeat runs; inconclusive = weak or mixed curves, or effect the other way; inactive = no such curve, though single readings can be large or run the other way.
% is set by controls: 0 for no effect and ±100 for the full control effect.

Assay: qHTS assay to identify small molecule agonists of the RXR signaling pathway - cell viability counter screen (AID 1159529); note: nearly all actives have a fitted effect of over 50% in size
Settings: RXR-alpha-bla HEK293T viability, CellTiter-Glo, 16 h; at 35.3 µM (top of the series)
Source text: National Center for Advancing Translational Sciences [NCATS]
NIH Chemical Genomics Center [NCGC]
U.S. Environmental Protection Agency [EPA]
National Institutes of Environmental Health Sciences [NIEHS]
National Toxicology Program [NTP]
U.S. Food and Drug Administration [FDA]
The Retinoid X receptor (RXR), a nuclear hormone receptor expressed in liver, spleen, placenta, epidermis, central nervous system. These receptors are able to form homo and heterodimers with other nuclear receptors and due to this heterodimerizing ability, RXR functions as master regulators producing diverse physiological effects. Three subtypes of RXR exist; alpha, beta and gamma. Retinoid X receptor alpha (RXR-alpha) has potential roles in metabolic signaling pathways, skin alopecia, dermal cysts, cardiac development, insulin sensitization etc. Therefore screening environmental chemicals on RXR-alpha signaling can be used for the studies focused on such therapeutic applications. For quantification of RXR-alpha ligands signaling, GeneBLAzer RXR alpha-UAS-bla HEK 293T (Life Technologies, Carlsbad, CA) cells containing a beta-lactamase reporter-gene under control of Retinoid X receptor-alpha response element were used to screen Tox21 10K library. The cytotoxicity of the Tox21 compound library against the RXR-alpha HEK 293T cell line was tested in parallel by measuring cell viability using CellTiter-Glo assay (Promega Corporation, Madison, WI) in the same wells.
Tox21 Assay Protocol Summary:
RXR-alpha HEK 293T cells were dispensed at 2,000 cells/6 uL of assay medium containing 2% charcoal-stripped FBS using a Multidrop Combi (ThermoFisher Scientific, Waltham, MA) dispenser. The assay was performed in black wall/clear-bottom 1536-well plates (Greiner Bio-One North America Inc. Monroe, NC). Tetraoctyl ammonium bromide was used as a positive control in the cytotoxicity screen. After the assay plates were incubated at 37 C and 5% CO2 for 5 hr, 23 nL of compounds dissolved in DMSO, positive control or DMSO only were transferred to the assay plate by a Pintool station (Kalypsys, San Diego, CA). The assay plates were incubated at 37 C and 5% CO2 for 16 hr. One uL of LiveBLAzer B/G FRET substrate (Life Technologies) was added using a Flying Reagent Dispenser (FRD) (Aurora Discovery, San Diego, CA) and the plates were incubated at room temperature for 2 hr. Fluorescence intensity (405 nm excitation, 460/530 nm emission) was measured using an Envision plate reader (PerkinElmer, Shelton, CT). For cytotoxicity, 4 uL/well of CellTiter-Glo reagent was added into the assay plates using an FRD. After 30 min incubation at room temperature, the luminescence intensity was measured using a ViewLux plate reader (PerkinElmer).
For `CCOP(=O)(CC)Oc1ccc([N+](=O)[O-])cc1` (centres undefined), the activity change, negative = cytotoxicity was inactive: -2.32%. For `OCCSCCO`, the activity change, negative = cytotoxicity was inactive: -0.844%. For `C/C1=C2N=C(/C=C3N=C(/C(C)=C4\[N-][C@@](C)([C@@H]5N=C1[C@](C)(CCC(=O)NC[C@@H](C)OP(=O)([O-])O[C@H]1[C@@H](O)[C@@H](n6cnc7cc(C)c(C)cc76)O[C@@H]1CO)[C@H]5CC(N)=O)[C@@](C)(CC(N)=O)[C@@H]4CCC(N)=O)[C@@](C)(CC(N)=O)[C@@H]\3CCC(N)=O)C(C)(C)[C@@H]/2CCC(N)=O.[C-]#N.[Co+3]`, the activity change, negative = cytotoxicity was inactive: -2.68%.

Same assay, conditions: RXR-alpha-bla HEK293T viability, CellTiter-Glo, 16 h; at 76.8 µM (top of the series)
For `O=[N+]([O-])[O-].[NH4+]`, the activity change, negative = cytotoxicity was inactive: 12.7% and inactive: 6.04%. For `N=C(N)N[N+](=O)[O-]`, the activity change, negative = cytotoxicity was inactive: 4.01%. In the case of `Cc1c([N+](=O)[O-])cccc1[N+](=O)[O-]`, the activity change, negative = cytotoxicity is reported as inactive: 24.5% and inactive: -1.7%. For `Cc1ccc([N+](=O)[O-])cc1[N+](=O)[O-]`, the activity change, negative = cytotoxicity was inactive: -2.52% and inactive: 4.34%. With `CP(=O)(O)OCCC[Si](O)(O)O` the activity change, negative = cytotoxicity was inactive: 10.2%. For `O=[N+]([O-])OCC(CO[N+](=O)[O-])(CO[N+](=O)[O-])CO[N+](=O)[O-]`, the activity change, negative = cytotoxicity was inactive: 3.26%. In the case of `CCN(CC)CCCl`, the activity change, negative = cytotoxicity is reported as inactive: -18.2%. For `N#CBr`, the activity change, negative = cytotoxicity was inactive: -3.07%. With `CCOP(=O)(CC)OCC` the activity change, negative = cytotoxicity was inactive: -4.36%. In the case of `[NH4+].[O-][Cl+3]([O-])([O-])[O-]`, the activity change, negative = cytotoxicity is reported as inactive: 0.758% and inactive: 2.77%. In the case of `COP(C)(=O)OC`, the activity change, negative = cytotoxicity is reported as inactive: -0.229% and inactive: -2.67%. In the case of `OCCSCCO`, the activity change, negative = cytotoxicity is reported as inactive: -8.04%. With `CC(C)N(CCO)C(C)C` the activity change, negative = cytotoxicity was inactive: 1.19%. For `O=[N+]([O-])c1cccc([N+](=O)[O-])c1`, the activity change, negative = cytotoxicity was inactive: 12.7%. For `CC(C)OP(C)(=O)OC(C)C`, the activity change, negative = cytotoxicity was inactive: 14.3% and inactive: -1.22%. For `COc1ccc([N+](=O)[O-])cc1[N+](=O)[O-]`, the activity change, negative = cytotoxicity was inactive: -5.05%.
